Experimental data: US11160797B2, “Pyridinone derivatives and their use as selective ALK-2 inhibitors” (NOVARTIS AG, priority 2017, dated 2021)

System: HuH7 cells, BMP response element (BRE) luciferase reporter, BMP6 stimulated
Experiment: BMP signaling reporter gene assay
Assay type: cell-based
Conditions: Homo sapiens, Huh-7; BMP6 100 ng/ml; read-out: MSD HuH7 cell BMP reporter IC50

## CC(C)n1cc(-c2cncc(-c3ccc4c(c3)NC(=O)C4(C)C)c2)ccc1=O [Example 32, 6-(1′-isopropyl-6′-oxo-1′,6′-dihydro-[3,3′-bipyridin]-5-yl)-3,3-dimethylindolin-2-one]
  IC50: 70 nM
